# Columns and labels:
# [1] = tested on: beet armyworm (Spodoptera exigua); test: Insecticidal test for beet armyworm in dietary assays; details: 50 μg/cm2, second-instar larvae, 5 days
# [2] = tested on: fruit fly (Drosophila melanogaster); test: Insecticidal test for fruit fly, dietary; details: 25 μg/cm2, 48 h
# [3] = tested on: corn earworm (Helicoverpa zea); test: Insecticidal test for corn earworm in dietary assays; details: 50 μg/cm2, second-instar larvae, 5 days
smiles,measurement,setting,value
O=[N+]([O-])N=S1(=O)CCCC1,BAW 50: % mortality at 50 μg/cm2 against beet armyworm in dietary tests,[1],G (Inactive)
same,FF 25: % mortality at 25 μg/cm2 against fruit fly in dietary tests,[2],F (Less than 50)
same,CEW 50: % mortality at 50 μg/cm2 against corn earworm in dietary tests,[3],G (Inactive)
